Test results from US20240397940A1, “COMPOSITIONS COMPRISING A SATURATED OR UNSATURATED ALIPHATIC ACID AND A NON-IONIC SURFACTANT FOR ENHANCING PENETRATION OF PESTICIDE COMPONENT” (TERRAMERA, INC., priority 2021, published 2024).

How the values were obtained:
Assay type in all cases: in vitro ADME
[1] = tested on: waxy cuticles of whole soybean leaves; assay: Franz cell leaf penetration of prothioconazole, Biosoft adjuvants (Example 9); details: penetration ratio of prothioconazole (615 ppm, Proline), trans-3-Hexenoic acid 1,500 ppm and Biosoft adjuvant 1,000 ppm where included, 24 hours
Description: (§1) This ratio may be expressed based on:
Several donor solutions were prepared to assess penetration of an azole fungicide active ingredient, namely prothioconazole, across waxy cuticles of whole soybean leaves. […] Such donor solutions comprised 615 ppm prothioconazole. Certain donor solutions included an aliphatic acid, namely trans-3-Hexenoic acid. Such donor solutions comprised 1,500 ppm trans-3-Hexenoic acid. […] In this example, the adjuvants tested were non-ionic surfactants comprising C11 linear alcohol ethoxylates (available from Stepan Company of Northfield, IL as Biosoft® N1-5, Biosoft® N1-7, and Biosoft® N1-9).
(§2) The permeation period was 24 hours.

[2] = tested on: waxy cuticles of whole soybean leaves; assay: Franz cell leaf penetration of prothioconazole, Triton X-100 (Example 12); details: penetration ratio of prothioconazole (615 ppm, Proline), trans-3-Hexenoic acid 1,500 ppm and Triton X-100 31.3 ppm where included, 24 hours
Description: as §1
(§3) Several donor solutions were prepared to assess penetration of an azole fungicide, namely prothioconazole, across waxy cuticles of whole soybean leaves. […] Such donor solutions comprised 615 ppm prothioconazole. Certain donor solutions included 1,500 ppm trans-3-Hexenoic acid.
as §2

[3] = tested on: waxy cuticles of whole soybean leaves; assay: Franz cell leaf penetration of prothioconazole, Agral 90 (Example 10); details: penetration ratio of prothioconazole (615 ppm, Proline), trans-3-Hexenoic acid 1,500 ppm and Agral 90 31.1 ppm where included, 24 hours
Description: as §1, §3, §2

[4] = tested on: waxy cuticles of whole soybean leaves; assay: Franz cell leaf penetration of trans-3-Hexenoic acid, Triton X-100 (Example 13); details: penetration ratio of trans-3-Hexenoic acid (1,500 ppm), prothioconazole 615 ppm (Proline) and Triton X-100 31.3 ppm where included, 24 hours
Description: as §1
Such donor solutions comprised 615 ppm prothioconazole.
as §2

[5] = tested on: waxy cuticles of whole soybean leaves; assay: Franz cell leaf penetration of trans-3-Hexenoic acid, Biosoft adjuvants (Example 1); details: penetration ratio of trans-3-Hexenoic acid (1,500 ppm), prothioconazole 615 ppm (Proline) and adjuvant 1,000 ppm where included, 24 hours
Description: as §1
Certain donor solutions included an azole fungicide, namely prothioconazole. […] Such donor solutions comprised 615 ppm prothioconazole. […] In this example, the adjuvants tested were non-ionic surfactants comprising C11 linear alcohol ethoxylates (available from Stepan Company of Northfield, IL as Biosoft® N1-5, Biosoft® N1-7, and Biosoft® N1-9).
as §2

SMILES | Pesticidal Active Ingredient Penetration [1] [%] | Pesticidal Active Ingredient Penetration [2] [%] | Pesticidal Active Ingredient Penetration [3] [%] | Aliphatic Acid Penetration [4] [%] | Aliphatic Acid Penetration [5] [%]
OC(Cc1ccccc1Cl)(Cn1nc[nH]c1=S)C1(Cl)CC1 (centres unmarked) [Prothioconazole, prothioconazole] | 2.5 | 0.7 | 1.1 |  | 
CC/C=C/CC(=O)O [trans-3-Hexenoic acid] |  |  |  | 13.7 | 13.7
